## Yeast mating assay 2: variants of the scFv Ab-91

All variants were tested on one target, the spike HR2 peptide PDVDLGDISGINAS (SARS-CoV-2).

Each scFv is VL, the linker GGGGSGGGGSGGGGS, VH, as in the parent Ab-91, and differs from it in the CDRs of the heavy chain only.
VL: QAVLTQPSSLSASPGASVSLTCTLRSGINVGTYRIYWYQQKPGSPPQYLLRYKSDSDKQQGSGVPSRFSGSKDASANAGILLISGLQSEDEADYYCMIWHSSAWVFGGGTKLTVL
VH: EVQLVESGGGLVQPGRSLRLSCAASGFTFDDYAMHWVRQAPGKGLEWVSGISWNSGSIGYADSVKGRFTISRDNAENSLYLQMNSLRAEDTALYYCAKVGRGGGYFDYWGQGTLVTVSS

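The parent was found by panning a naive human phage display library on the peptide. Library AAYL51 holds single substitutions and randomly drawn double and triple substitutions in the CDRs. Affinity was read by AlphaSeq, a pooled yeast mating assay with surface-displayed partners. Binding brings cells together so that they mate, and sequencing counts the barcode pairs among the diploids. The ratio of observed to expected reads was calibrated, replicate by replicate, on BCL2-family standards whose Kd was known from biolayer interferometry. Each pool was mated in three replicate cultures.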

Positions count from residue 1 of the parent VH; T28E puts E in place of T. All variants listed here change T28 of the VH, counted from its first residue. The Kd shown is the geometric mean over detected replicates; a lower Kd is a better binder. A pair that was not seen in any replicate is written "nd"; this usually means weak binding, but a binder can also be missed. Nonspecific signal, from three strains lacking the peptide, appeared in 21% of pairings of library AAYL51, centred on 34 µM (5% of these signals below 1.8 µM); values are not corrected for it.

| changes | apparent Kd | seen in |
|---|---|---|
| T28E/G50A/G100I | nd | 0 of 3 |
| T28D/I51Q/S52H | 420 µM | 3 of 3 |
| T28Y/S55R/V64H | nd | 0 of 3 |
| T28Y/H35P/Y60A | nd | 0 of 3 |
| T28C/Y32M/A33Y | 50 µM | 2 of 3 |
| T28R/I58V/D62H | 160 nM | 3 of 3 |
| T28S/D30I/S52C | 63 µM | 2 of 3 |
| T28S/D31T/G50T | nd | 0 of 3 |
| T28H/V99P/Y108R | 4.5 µM | 1 of 3 |
| T28Y/A33G/H35Q | 48 µM | 3 of 3 |
| T28H/G56M | 170 nM | 3 of 3 |
| T28P/H35M/I58L | nd | 0 of 3 |
| T28M/G104C/F106K | nd | 0 of 3 |
| T28G/I51Q/V99R | nd | 0 of 3 |
| T28P/V99M/R101M | nd | 0 of 3 |
| T28R/D30H/W53L | 44 nM | 3 of 3 |
| T28G/A61G/G100E | 8.1 µM | 3 of 3 |
| T28R/A33T/G56E | nd | 0 of 3 |
| T28L/A33V/V99F | 180 µM | 1 of 3 |
| G26R/T28G | 69 µM | 2 of 3 |
| T28N/G50I/Y60S | 36 µM | 1 of 3 |
| G26K/T28E/M34Q | 27 µM | 3 of 3 |
| T28N/V99I/G100N | nd | 0 of 3 |
| T28H/D30L/Y60N | 74 µM | 3 of 3 |
| T28F/Y105Q | 8.5 nM | 3 of 3 |
| T28A/G56N/Y108N | nd | 0 of 3 |
| T28N/G50I/D107T | nd | 0 of 3 |
| T28W/V64C | 7.0 µM | 1 of 3 |
| T28E/N54D/G100K | 10 µM | 2 of 3 |
| T28A/D107P/Y108T | 13 µM | 2 of 3 |
| T28N/D31S/H35Y | 48 µM | 2 of 3 |
| T28S/Y32K/D62T | 13 µM | 2 of 3 |
| T28L/V64K/G102M | nd | 0 of 3 |
| T28S/Y32N/K65S | nd | 0 of 3 |
| T28L/G56K/I58K | nd | 0 of 3 |
| T28R/G59L/D107A | 250 µM | 3 of 3 |
| T28R/N54H/V99T | 90 µM | 3 of 3 |
| T28A/A33T/F106V | nd | 0 of 3 |
| T28S/R101F | 1.7 µM | 3 of 3 |
| T28V/R101D/Y105W | nd | 0 of 3 |
| T28F/D31M/G56T | 360 µM | 1 of 3 |
| T28E/S52H | 62 µM | 1 of 3 |
| T28C/S63F/R101E | 82 µM | 2 of 3 |
| T28S/N54K/K65W | nd | 0 of 3 |
| F27N/T28L | 18 µM | 3 of 3 |
| T28F/S52T/Y108T | 1.1 mM | 3 of 3 |
| T28Y/N54S/G56N | 180 nM | 3 of 3 |
| T28N/Y32D/V64R | nd | 0 of 3 |
| T28N/Y32T/N54M | 13 µM | 3 of 3 |
| T28I/I51T | 63 µM | 3 of 3 |
| T28W | 10 nM | 3 of 3 |
| T28A/Y108S | 6.3 nM | 3 of 3 |
| T28K/G100D | 32 µM | 2 of 3 |
| T28G/F29Y/G56R | nd | 0 of 3 |
| T28V/Y32I/G103V | 84 nM | 3 of 3 |
| T28V/G50R/N54F | 120 µM | 2 of 3 |

Repeated from above, the 7 best binders with a signal in all replicates:

| changes | apparent Kd | seen in |
|---|---|---|
| T28A/Y108S | 6.3 nM | 3 of 3 |
| T28F/Y105Q | 8.5 nM | 3 of 3 |
| T28W | 10 nM | 3 of 3 |
| T28R/D30H/W53L | 44 nM | 3 of 3 |
| T28V/Y32I/G103V | 84 nM | 3 of 3 |
| T28R/I58V/D62H | 160 nM | 3 of 3 |
| T28H/G56M | 170 nM | 3 of 3 |

In this assay the parent's reference entry averaged 72 nM; its copy inside this library read 7.5 nM.

From the AlphaSeq antibody data of Engelhart et al. 2022 (doi:10.1038/s41597-022-01779-4), copy in the FLAb collection.